Results reported in PubChem BioAssay AID687016 (The Scripps Research Institute Molecular Screening Center, 2013).
Only a part is listed here, and it is no random draw. The source made the active and inactive calls. No stated cut-off is given here; in the data, active means inhibition above about 21%; inactive means the rest.

Sequences of proteins named here, by UniProt entry; tags and fusion partners are left off.
UniProt Q96T88, whole entry: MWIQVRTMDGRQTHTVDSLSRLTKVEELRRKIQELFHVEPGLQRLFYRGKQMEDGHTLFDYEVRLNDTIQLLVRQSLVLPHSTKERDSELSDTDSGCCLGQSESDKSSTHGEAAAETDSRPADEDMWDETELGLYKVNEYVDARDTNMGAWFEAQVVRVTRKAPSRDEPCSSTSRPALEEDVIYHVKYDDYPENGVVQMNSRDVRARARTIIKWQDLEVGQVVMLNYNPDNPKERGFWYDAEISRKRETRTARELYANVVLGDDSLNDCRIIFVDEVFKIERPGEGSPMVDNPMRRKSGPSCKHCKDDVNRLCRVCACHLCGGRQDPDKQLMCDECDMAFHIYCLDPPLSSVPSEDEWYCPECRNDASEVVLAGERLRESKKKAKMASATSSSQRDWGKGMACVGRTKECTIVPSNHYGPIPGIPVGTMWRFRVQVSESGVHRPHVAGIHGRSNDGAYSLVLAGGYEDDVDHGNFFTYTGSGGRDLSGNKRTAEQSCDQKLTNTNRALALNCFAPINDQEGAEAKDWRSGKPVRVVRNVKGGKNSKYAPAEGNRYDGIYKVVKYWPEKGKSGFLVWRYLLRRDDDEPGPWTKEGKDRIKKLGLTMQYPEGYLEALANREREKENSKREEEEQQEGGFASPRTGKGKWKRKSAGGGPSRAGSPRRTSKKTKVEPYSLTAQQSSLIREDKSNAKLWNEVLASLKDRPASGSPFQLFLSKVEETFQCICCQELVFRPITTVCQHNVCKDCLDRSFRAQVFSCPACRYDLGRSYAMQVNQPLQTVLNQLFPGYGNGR

These compounds were tested against E3 ubiquitin-protein ligase UHRF1 (Homo sapiens) (UniProt Q96T88) (assay: blockers of UHRF1 binding to methyl-oligo – biochemical, TR-FRET, human UHRF1, single concentration, counter-screen for MBD2 inhibitor project, primary screen (AID 687016;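 further: UHRF1 SRA domain binding a hemimethylated CpG hairpin DNA probe; 0% = median of test compound wells and 100% = reference inhibitor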)). Settings: UHRF1 binding to methylated oligo, at 4.4 µM, stronger effect = higher value.

Row | Structure (SMILES) | inhibition
1 | O=c1[nH]c2ccccc2n1C1CCN(C(c2cc3ccccc3o2)c2nnnn2C2CCCC2)CC1 (stereo not given) | inactive: 1.31%
2 | CCCOc1ccc(C(=O)NCC2(N(C)C)CCCCC2)cc1 | inactive: 0.69%
3 | CC(C)(C)OC(=O)N1CCC(Nc2ccccc2)CC1 | inactive: 4.63%
4 | O=C(O)C1(Nc2ccccc2)CCN(Cc2ccccc2)CC1 | inactive: -1.28%
5 | NN(c1ccccc1)C1CCN(CCc2ccccc2)CC1 | inactive: -1.93%
6 | CCOc1ncccc1C(=O)NCC1(N2CCOCC2)CCCCC1 | inactive: 4.25%
7 | CN1CCC(Nc2ccc(F)c(Cl)c2)CC1 | inactive: 1.42%
8 | CN1CCC(Nc2ccc(Cl)cc2)CC1 | inactive: -1.59%
9 | CCC(CO)(C(=O)OC1CN2CCC1CC2)c1ccccc1 (stereo not given) | inactive: 2.2%
10 | COc1cccc(C(c2nnnn2C2CCCC2)N2CCC(n3c(=O)[nH]c4ccccc43)CC2)c1OC (stereo not given) | inactive: -0.51%
11 | COc1cc(OC)cc(C(=O)NCC2(N3CCOCC3)CCCCC2)c1 | inactive: -0.44%
12 | COc1cccc(C(=O)N(c2cc(C)cc(C)c2)C2CCN(C(=O)OC(C)(C)C)CC2)c1 | inactive: 0.38%
13 | Cc1ccc(NC2(C#N)CCN(Cc3ccccc3)CC2)cc1 | inactive: 0.96%
14 | Cc1ccc(C(=O)NCC2(N3CCCCC3)CCCCC2)o1 | inactive: -1.01%
15 | Fc1ccccc1NC1CCN(Cc2ccccc2)CC1 | inactive: -1.77%
16 | COc1cc(OC)cc(C(=O)NCC2(N3CCCCC3)CCCCC2)c1 | inactive: -3.62%
17 | O=c1[nH]c2ccccc2n1C1CCN(C(c2ccnc3ccccc23)c2nnnn2C2CCCCC2)CC1 (stereo not given) | inactive: 3.98%
18 | COc1cccc(C(c2nnnn2C2CCCCC2)N2CCC(n3c(=O)[nH]c4ccccc43)CC2)c1OC (stereo not given) | inactive: 7.56%
19 | CC(=O)N(c1ccccc1)C1CCNCC1 | inactive: 1.71%
20 | CCC(c1nnnn1C1CCCCC1)N1CCC(n2c(=O)[nH]c3ccccc32)CC1 (stereo not given) | inactive: 2%
21 | O=C(NCC1(N2CCCCC2)CCCCC1)c1ccco1 | inactive: 2.79%
22 | CN(C)c1ccc(C(=O)NCC2(N3CCCCC3)CCCCC2)cc1 | inactive: -2.08%

Row | Structure (SMILES) | inhibition
23 | Cn1c(=O)[nH]cc(N(CCCl)CCCl)c1=O | inactive: -6.97%
24 | Cc1ccccc1NC1(C#N)CCN(Cc2ccccc2)CC1 | inactive: 0%
25 | COc1ccc(C(c2nnnn2C2CCCCC2)N2CCC(n3c(=O)[nH]c4ccccc43)CC2)cc1 (stereo not given) | inactive: 0.88%
26 | CCN1CCC(Nc2cccc(F)c2)CC1 | inactive: 0.9%
27 | CC(C)(C)n1nnnc1C(c1ccnc2ccccc12)N1CCC(n2c(=O)[nH]c3ccccc32)CC1 (stereo not given) | inactive: -0.7%
28 | CC(C)(C)OC(=O)N1CCC(N(C(=O)c2ccccc2)c2ccc(Cl)cc2)CC1 | inactive: 2.01%
29 | N#Cc1ccc(C(=O)NCC2(N3CCCCC3)CCCCC2)cc1 | inactive: 4.9%
30 | CC(C)(C)n1nnnc1C(c1cccc2ccccc12)N1CCC(n2c(=O)[nH]c3ccccc32)CC1 (stereo not given) | inactive: -1.98%
31 | C/C(N)=N\P(=O)(Oc1ccccc1)Oc1ccccc1 | inactive: 0%
32 | c1ccc(CN2CCC(Nc3ccccc3)CC2)cc1 | inactive: 5.26%
33 | CCCN1CCC(Nc2cc(OC)cc(OC)c2)CC1 | inactive: 2.34%
34 | O=c1[nH]c2ccccc2n1C1CCN(C(c2ccccc2)c2nnnn2C2CCCC2)CC1 (stereo not given) | inactive: -1.38%
35 | Cc1cc(N(CCCl)CCCl)ccc1C=O | inactive: 2.62%
36 | CN(C)C1(CNC(=O)c2cccc(C#N)c2)CCCCC1 | inactive: -1.07%
37 | COc1ccc(C(=O)NCC2(N3CCOCC3)CCCCC2)cc1OC | inactive: -1.28%
38 | O=c1[nH]c2ccccc2n1C1CCN(C(c2ccnc3ccccc23)c2nnnn2C2CCCC2)CC1 (stereo not given) | inactive: 0.18%
39 | O=c1[nH]c2ccccc2n1C1CCN(C(c2cccs2)c2nnnn2C2CCCCC2)CC1 (stereo not given) | inactive: 2.31%
40 | NC(=O)C1(Nc2ccccc2)CCN(Cc2ccccc2)CC1 | inactive: 1.09%
41 | O=C(NCC1(N2CCOCC2)CCCCC1)c1cc(Br)ccc1Cl | inactive: 3.75%
42 | CCCCn1nnnc1C(c1ccccc1)N1CCC(n2c(=O)[nH]c3ccccc32)CC1 (stereo not given) | inactive: -2.21%
43 | COc1cc(C(=O)NCC2(N3CCOCC3)CCCCC2)cc(OC)c1C | inactive: 11.2%
44 | CCCCn1nnnc1C(c1cccc(OC)c1OC)N1CCC(n2c(=O)[nH]c3ccccc32)CC1 (stereo not given) | inactive: 14.2%

Row | Structure (SMILES) | inhibition
45 | O=C(OC1CN2CCC1CC2)C1c2ccccc2C=Cc2ccccc21 (stereo not given) | inactive: -2.31%
46 | O=c1[nH]c2ccccc2n1C1CCN(C(c2cccs2)c2nnnn2C2CCCC2)CC1 (stereo not given) | inactive: -0.64%
47 | N/C(=N\O)c1c(N)no[n+]1[O-] | inactive: -0.02%
48 | CCOC(=O)N1CCC(Nc2ccc(C)cc2)CC1 | inactive: 0.19%
49 | COc1cccc(C(c2nnnn2C(C)(C)C)N2CCC(n3c(=O)[nH]c4ccccc43)CC2)c1OC (stereo not given) | inactive: 1.07%
50 | CCCCn1nnnc1C(c1ccnc2ccccc12)N1CCC(n2c(=O)[nH]c3ccccc32)CC1 (stereo not given) | inactive: 0.56%
51 | COc1cc(OC)c(C(=O)NCC2(N(C)C)CCCCC2)cc1OC | inactive: 4.06%
52 | CCC(c1nnnn1C(C)(C)C)N1CCC(n2c(=O)[nH]c3ccccc32)CC1 (stereo not given) | inactive: 0.57%
53 | O=C(NCC1(N2CCOCC2)CCCCC1)c1cc(F)c(F)cc1Cl | inactive: -0.47%
54 | COc1ccc(CN(CCCl)CCCl)cc1Cl | inactive: 5.43%
55 | COC(=O)C1(Nc2ccccc2)CCN(Cc2ccccc2)CC1 | inactive: 3.14%
56 | CN(C)c1cccc(C(=O)NCC2(N3CCCCC3)CCCCC2)c1 | inactive: -1.19%
57 | CC(C)c1ccc(NC2CCN(C(=O)OC(C)(C)C)CC2)cc1 | inactive: -3.04%
58 | Cc1ccc(C(=O)NCC2(N(C)C)CCCCC2)o1 | inactive: -0.58%
59 | CCCOc1ccc(C(=O)NCC2(N(C)C)CCCCC2)cc1OC | inactive: 0.84%
60 | COc1ccc(C(c2nnnn2C2CCCC2)N2CCC(n3c(=O)[nH]c4ccccc43)CC2)cc1 (stereo not given) | inactive: 16.7%
61 | CN1CCC(Nc2cccc(F)c2)CC1 | inactive: -0.96%
62 | O=C(NCC1(N2CCCCC2)CCCCC1)c1cncc(Br)c1 | inactive: -0.99%
63 | CSc1ccc(C(=O)NCC2(N3CCOCC3)CCCCC2)cc1 | inactive: -0.5%
64 | O=C(NCC1(N2CCCCC2)CCCCC1)c1cccc([N+](=O)[O-])c1 | inactive: -0.33%
65 | CCN1CCC(Nc2ccc(Cl)cc2)CC1 | inactive: 0.73%
66 | O=c1[nH]c2ccccc2n1C1CCN(C(c2ccccc2OC(F)(F)F)c2nnnn2C2CCCC2)CC1 (stereo not given) | inactive: 2.64%

Row | Structure (SMILES) | inhibition
67 | N#CC1(Nc2ccccc2)CCN(CCc2ccccc2)CC1 | inactive: -4.62%
68 | CC(C)(C)n1nnnc1C(c1ccccc1OC(F)(F)F)N1CCC(n2c(=O)[nH]c3ccccc32)CC1 (stereo not given) | inactive: -2.59%
69 | O=C(NCC1(N2CCCCC2)CCCCC1)c1ccc(OC(F)F)cc1 | inactive: 2.47%
70 | CN1CCN(CCOC(=O)C(O)(c2ccccc2)c2ccccc2)CC1 | inactive: -0.03%
71 | COc1ccc(NC2CCN(C(=O)OC(C)(C)C)CC2)cc1 | inactive: 0.1%
72 | CC(C)c1ccc(C(=O)NCC2(N3CCOCC3)CCCCC2)cc1 | inactive: 4.93%
73 | CCCCn1nnnc1C(c1cccc2ccccc12)N1CCC(n2c(=O)[nH]c3ccccc32)CC1 (stereo not given) | inactive: -0.48%
74 | COc1cc(C(=O)NCC2(N3CCCCC3)CCCCC2)ccc1OC(F)F | inactive: -1.37%
75 | O=C(NCC1(N2CCOCC2)CCCCC1)c1cc(=O)[nH]c2ccccc12 | inactive: -0.4%
76 | O=C(NCC1(N2CCCCC2)CCCCC1)c1cccc(C(F)(F)F)c1 | inactive: -1.29%
77 | O=P1(N(CCCl)CCCl)SCCCS1 | inactive: 0.2%
78 | CCCCn1nnnc1C(c1cc2ccccc2o1)N1CCC(n2c(=O)[nH]c3ccccc32)CC1 (stereo not given) | inactive: -2.68%
79 | CCCCOc1ccc(C(=O)NCC2(N3CCOCC3)CCCCC2)cc1 | inactive: -1.01%
80 | O=C(NCC1(N2CCCCC2)CCCCC1)c1ccc(F)cc1 | inactive: -0.81%
81 | COc1ccc(NC2CCN(CCc3ccccc3)CC2)c(OC)c1 | inactive: -5.66%
82 | CCOC(=O)N1CCC(Nc2ccc(F)cc2)CC1 | inactive: -0.2%
83 | CCOc1ccc(C)cc1CN(CCCl)CCCl | inactive: 1.78%
84 | CC(C)(C)n1nnnc1C(c1ccccc1)N1CCC(n2c(=O)[nH]c3ccccc32)CC1 (stereo not given) | inactive: 0.46%
85 | O=C1CCN(Cc2ccccc2)CC1 | inactive: 4.75%
86 | O=c1[nH]c2ccccc2n1C1CCN(C(c2cccc3ccccc23)c2nnnn2C2CCCC2)CC1 (stereo not given) | inactive: -1.3%
87 | CCOC(=O)N1CCC(Nc2cccc(C)c2)CC1 | inactive: -2.28%
88 | COc1cc(C(=O)NCC2(N(C)C)CCCCC2)ccc1OC(F)F | inactive: 4.32%

Row | Structure (SMILES) | inhibition
89 | O=c1[nH]c2ccccc2n1C1CCN(C(c2ccccc2)c2nnnn2C2CCCCC2)CC1 (stereo not given) | inactive: 3.15%
90 | CSc1ccccc1C(=O)NCC1(N2CCCCC2)CCCCC1 | inactive: 0.03%
91 | Cc1cccc(NC2(C#N)CCN(Cc3ccccc3)CC2)c1 | inactive: 3.19%
92 | O=C(NCC1(N2CCCCC2)CCCCC1)c1ccc(=O)[nH]c1 | inactive: -0.14%
93 | CCCCn1nnnc1C(CC)N1CCC(n2c(=O)[nH]c3ccccc32)CC1 (stereo not given) | inactive: 2.3%
94 | O=C(NCC1(N2CCCCC2)CCCCC1)c1cccs1 | inactive: 0.53%
95 | CCCCn1nnnc1C(c1cccs1)N1CCC(n2c(=O)[nH]c3ccccc32)CC1 (stereo not given) | inactive: -2.98%
96 | COc1ccc(C(=O)NCC2(N3CCCCC3)CCCCC2)cc1 | inactive: -1.42%
97 | COc1ccc(C(=O)NCC2(N3CCCCC3)CCCCC2)c(OC)c1OC | inactive: -0.07%
98 | CC(C)(C)OC(=O)N1CCC(N(C(=O)c2ccccc2)c2ccc(F)cc2)CC1 | inactive: 0.77%
99 | CCC(c1nnnn1C1CCCC1)N1CCC(n2c(=O)[nH]c3ccccc32)CC1 (stereo not given) | inactive: -1.74%
100 | CCOC(=O)N1CCC(Nc2ccc(OC)cc2)CC1 | inactive: -1.91%
101 | CCCCn1nnnc1C(c1ccc(OC)cc1)N1CCC(n2c(=O)[nH]c3ccccc32)CC1 (stereo not given) | inactive: 0.59%
102 | N#CC1(Nc2ccccc2)CCN(Cc2ccccc2)CC1 | inactive: -0.51%
103 | O=C(NCC1(N2CCCCC2)CCCCC1)c1ccc(Cl)s1 | inactive: 3.33%
104 | O=C(OC1CN2CCC1CC2)C1c2ccccc2Oc2ccccc21 (stereo not given) | inactive: -2.83%
105 | O=c1[nH]c2ccccc2n1C1CCN(C(c2cc3ccccc3o2)c2nnnn2C2CCCCC2)CC1 (stereo not given) | inactive: 2.77%
106 | COc1ccc(Cl)cc1C(=O)NCC1(N2CCOCC2)CCCCC1 | inactive: -0.16%
107 | O=C(NCC1(N2CCOCC2)CCCCC1)c1cc2ccccc2o1 | inactive: 2.26%
108 | O=C(NCC1(N2CCCCC2)CCCCC1)c1ccc(Cl)nc1 | inactive: 8.4%
109 | O=c1[nH]c2ccccc2n1C1CCN(C(c2ccccc2OC(F)(F)F)c2nnnn2C2CCCCC2)CC1 (stereo not given) | inactive: -0.08%
110 | Cc1cc(C)cc(N(C(=O)c2ccccc2)C2CCN(C(=O)OC(C)(C)C)CC2)c1 | inactive: 0.55%
